# Tested on: HEK293 cells transfected with control plasmid (pCMV) or plasmids expressing ORF8, ORF10 or M protein
# Test: Apoptosis assay: early (pSIVA) and late (propidium iodide) apoptosis index, Kinetic Apoptosis Kit
# Conditions: 2 μM, 24 h, vs vehicle only
smiles,measurement,value
"CCCCCc1cc(O)c2c(c1)OC(C)(C)c1ccc(C)cc1-2 [cannabinol, Cannabinol]",Early Apoptosis Index,this augmentation is significant

# — patent US20240024337A1, “INTERACTION OF SARS-COV-2 PROTEINS WITH MOLECULAR AND […] […] HOST CELLS AND FORMULATIONS TO TREAT COVID-19” (AKSEERA PHARMA CORP., priority 2020, published 2024)
